Laboratory results as given in patent US9089521B2, “Method for regulating production of hemoglobin beta chains” (priority 2001, dated 2015).
“Also recorded” adds a separate entry of the source.

What was measured:
[1] = tested on: human erythroid precursor cells; assay: Uptake of FITC-labeled ferritin-H, fluorescence microscopy; type: cell-based; conditions: 1 hour at 37 degrees C.
Method: Microscopy. Cells transfected with EGFP (enhanced green fluorescent protein) vector (FIGS. 13 & 14) and cells transduced with FITC-labeled ferritin-H protein (FIGS. 24 & 25) were viewed with a Nikon Optiphot microscope with epi-fluorescence optics. For confocal microscopy, cells were fixed with 1% formaldehyde 48 hours after transfection, and stained with DAPI nuclear stain. Images were obtained using a Leica TCS NT laser-scanning confocal microscope and were analyzed with Leica TCS software.

[2] = tested on: erythroid precursor cells from pediatric sickle cell disease patients; assay: HbS-to-HbF switching in two-phase culture, HPLC of hemoglobins and immuno-HbF fluorescence; type: cell-based, human; conditions: FIG. 23

Row | Substance | uptake after pre-incubation with protein transfection reagent (Chariot) ([1]; FIG. 25 D) | uptake from the surrounding medium without transfection reagent ([1]; FIGS. 24 and 25) | HbS-to-HbF hemoglobin switch ([2]; administered day 1 of phase II culture with rhEpo, HPLC, observed 23 days to 4 weeks after administration) | cellular distribution of HbF production ([2]; immuno-HbF fluorescence)
1 | FtH-FITC: ferritin-H protein labeled with FITC florescent dye | more intense fluorescence | took up | – | –
2 | ferritin-H protein: heavy chain (H) type subunit of ferritin; product of human FTH1 gene; repressor of β-globin gene | – | – | total switch; also recorded: complete HbS-to-HbF switch | pancellular
